# Yeast mating assay B: variants of the scFv Ab-14

The measurements come from Li et al. 2023 (doi:10.1038/s41467-023-39022-2) through the FLAb antibody collection.

Target peptide (SARS-CoV-2 spike, HR2 region): PDVDLGDISGINAS

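The starting antibody came from a phage panning campaign against this peptide. The variants were designed computationally from a first round of random CDR variants and then made and measured. Their group label is 14L_En_HC (En: ensemble of fine-tuned language models; HC: hill climbing; a sequence that several methods proposed may carry one label only). Affinity was read by AlphaSeq, a pooled yeast mating assay with surface-displayed partners. The frequency of each diploid, read from paired DNA barcodes, reflects how well the two displayed proteins bind. A regression on co-assayed BCL2-family reference pairs converts the normalised counts of each replicate to an apparent Kd. There are six technical replicates.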

Each scFv is VH, the linker GGGGSGGGGSGGGGS, VL, as in the parent Ab-14, and differs from it in the CDRs of the light chain only.
VH: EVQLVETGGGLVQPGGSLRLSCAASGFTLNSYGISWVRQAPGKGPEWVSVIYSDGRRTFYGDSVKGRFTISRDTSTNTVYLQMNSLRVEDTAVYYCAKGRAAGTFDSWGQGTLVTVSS
VL: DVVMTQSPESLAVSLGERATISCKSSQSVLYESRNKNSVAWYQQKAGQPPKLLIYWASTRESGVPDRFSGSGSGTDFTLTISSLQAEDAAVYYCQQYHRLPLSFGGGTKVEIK

Each variant is given by its three light chain CDRs, as the data file delimits them; those of the parent are KSSQSVLYESRNKNSVA, WASTRES, QQYHRLPLS. Values are log10 of the apparent Kd in nM; lower means stronger binding. The mean shown is taken over the replicates in which the pair was detected. A pair that was not seen in that replicate is written "n.d."; this usually means weak binding, but a binder can also be missed. Nonspecific signal, from three strains lacking the peptide, appeared in 4% of pairings of all light chain designs, centred on 2.64 (5% of these signals below 1.59); values are not corrected for it. The control count says in how many pairings with the empty strains this scFv gave a signal, with their mean in brackets.

CDR-L1,CDR-L2,CDR-L3,"replicates, log10 nM","mean, log10 nM",control signals
KISQLANFLGKNKNSVA,QMSTRES,QQYDRLPLS,0.38 0.27 0.12 -0.02 0.16 0.39,0.22,0 of 18
TISDLIMVASRNRNSVA,DESARPD,QQYHRLPLS,-0.17 -0.17 -0.14 -0.40 -0.16 -0.04,-0.18,0 of 18
MISQSFLIGMKAKNSVA,QTSTRVE,QQYDRLPLI,0.49 0.72 0.26 0.25 0.21 0.97,0.48,0 of 18
MIGQGLMGESRAKNSIA,QASLRFD,QQYHRLPLI,n.d. 1.26 n.d. n.d. 2.95 n.d.,2.11,0 of 18
MIGDMGLHDSRIQNSVA,NNSTREA,QQYDRLPLS,1.41 1.15 0.39 1.43 0.37 1.22,0.99,1 of 18 (2.37)
KLGQSVAMTSRMKNNVA,DLNERER,QQYHRLPLS,0.34 -0.08 0.00 -0.09 0.37 0.25,0.13,1 of 18 (1.39)
TISQSAQTESHNKNSVA,DLSVRGS,QQYHRLPLS,0.49 0.35 0.33 0.23 0.22 0.53,0.36,1 of 18 (2.73)
TISQMFLGMSRNRNSVA,QASTRCS,QSYDRLPLS,1.06 0.65 1.57 0.45 0.73 1.22,0.94,2 of 18 (2.81)
KITGMWTFESRNKNNIA,EESTRED,QSYHRLPLS,0.86 0.56 0.74 0.52 0.65 1.06,0.73,1 of 18 (2.01)
HISMMVGTKGYAKNSVA,NEETREK,QQYHRLPLS,0.88 0.64 1.12 0.80 0.78 1.03,0.88,0 of 18
MMSMGSLGGMRARNNVA,QEETREK,QQYHRLPLI,1.24 n.d. 0.73 1.45 n.d. n.d.,1.14,1 of 18 (2.76)
TISGLILMPSRNKNNVA,NTSTRYS,QQYHRLPLS,0.18 0.61 0.58 0.27 0.42 0.69,0.46,0 of 18
IFSQSVLMGMHTKNSVA,QATMRFN,QQYERLPFM,0.89 1.32 1.25 1.16 0.37 0.87,0.98,0 of 18
TISQMWFIESKNRNNVA,EMTTRED,QDYDRLPLS,0.47 0.95 0.64 0.46 0.57 0.91,0.67,1 of 18 (2.44)
HISQSVGMTSRNKNSVA,ENTTRED,QQYDRLPLS,1.85 2.58 1.64 n.d. n.d. 1.95,2.01,0 of 18
IISQVDAYESRNKNSIA,DQSTRGS,QQYDRLPLS,0.40 0.68 0.50 0.40 0.40 0.32,0.45,2 of 18 (3.23)
KITGMWTFESRNKNSIA,EESTRAD,QSYHRLPLS,0.62 0.27 0.38 0.43 0.54 0.66,0.48,4 of 18 (4.04)
HLSQSYDLESVHKNSIA,DLMTRES,QQYHRLPLS,0.22 -0.01 -0.51 -0.23 0.83 0.41,0.12,0 of 18
ILSQSVLMGSHLKNSVA,QASTRFE,QQYHRLPLS,0.83 0.90 0.72 0.96 0.83 1.17,0.90,0 of 18
ILSQSVLMGMHLKNSVA,QATMRFD,QQYHRLPLM,n.d. n.d. n.d. n.d. n.d. n.d.,n.d.,0 of 18
MISDLTMYGSRNVNSVA,DLSTRGN,QQYHRLPLS,0.05 0.27 -0.05 -0.36 -0.19 0.09,-0.03,0 of 18
HISESMYYQSRMKNNIA,EMSTRER,QHYHRLPLS,1.06 1.34 1.07 0.98 0.98 1.40,1.14,1 of 18 (2.74)
MFSQLVYTGSRAKNAVA,QASTREN,QQYHRLPLS,0.37 0.30 -0.03 -0.04 -0.32 0.25,0.09,0 of 18
HISQMVMYGSCNYNNVA,QVSTREE,QQYHRLPLS,0.54 0.22 0.96 0.44 0.37 0.28,0.47,0 of 18
NISESMYFQSINKNNIA,EMSTRER,QHYHRLPLS,n.d. 0.97 1.08 1.62 1.50 2.31,1.49,0 of 18
TLTQVQGMMSHNKDNVA,DLSTRGN,QQYDRLPLS,2.73 n.d. 3.10 n.d. 2.26 n.d.,2.69,0 of 18
KVSQSVNVGTKNKNSLA,EMSTREF,QDYHRLPLS,1.01 0.77 0.79 0.56 0.84 1.11,0.85,3 of 18 (2.08)
MFSQLMEYGSRYKNSVA,QASVRED,QQYHWLPLS,n.d. n.d. n.d. n.d. n.d. n.d.,n.d.,0 of 18
TVSQVHGMLSHNKNSVA,DMNTRGS,QQYDRLPLS,0.75 n.d. 0.29 0.13 -0.55 1.41,0.40,0 of 18
KISYQYRYEQLSKNSIA,EAQTRLK,QQYHRLPLS,0.96 1.14 1.32 0.88 0.94 0.87,1.02,1 of 18 (3.15)
TISQMWHLESKNKNNVA,EESTRED,QSYFRLPLS,n.d. n.d. n.d. n.d. n.d. n.d.,n.d.,0 of 18
HVSESVFQMSKMKNSVA,ENSTRES,QQYDRLPLS,2.25 1.95 1.37 3.33 2.20 3.09,2.36,0 of 18
KLSQVTHSEHKQKNSIA,EMVTREK,QQYDRLPLS,1.76 1.71 1.43 1.12 1.25 1.35,1.44,1 of 18 (2.64)
SLMQVGGYESNQKNSIA,DLRTRES,QQYHRLPLS,0.44 0.68 0.43 0.68 1.05 0.84,0.69,1 of 18 (1.56)
MLSALVKMGSRNTNSVA,DNSTRGS,QQYDRLPLS,n.d. 1.86 0.89 1.48 1.51 1.19,1.38,0 of 18
KLGSSTRFESSNKASIA,DNSTREQ,QQYHRLPLS,1.65 2.31 1.54 1.25 1.31 2.01,1.68,1 of 18 (3.18)
TLTQSVGMESHAKNSVA,DLSTRGS,QQYHRLPLS,0.25 0.11 0.26 0.01 0.12 0.28,0.17,0 of 18
IFSQSVLMGNLTKNSVA,QASTRFK,QQYHRLPLI,n.d. n.d. n.d. n.d. n.d. n.d.,n.d.,0 of 18
KLRQMTATEGYFKNSVA,QASTREN,QSYHRLPLS,1.81 0.45 1.25 0.90 1.04 1.40,1.14,0 of 18
KVGEMMAFLSSNRNNVA,DNSTRGS,QQYHRLPLS,n.d. 1.88 1.42 n.d. n.d. 2.27,1.86,0 of 18
TVSQVYEMLSRNKNSVA,DMNTRES,QQYDRLPLS,0.05 0.29 0.26 0.17 0.20 0.37,0.22,0 of 18
KLRQVTGYESYNINSVA,QTSTRAS,QDYHRLPLS,0.98 0.78 0.62 0.71 0.81 1.04,0.82,3 of 18 (2.43)

Repeated from above, the 3 best binders with a signal in all replicates:

CDR-L1,CDR-L2,CDR-L3,"replicates, log10 nM","mean, log10 nM",control signals
TISDLIMVASRNRNSVA,DESARPD,QQYHRLPLS,-0.17 -0.17 -0.14 -0.40 -0.16 -0.04,-0.18,0 of 18
MISDLTMYGSRNVNSVA,DLSTRGN,QQYHRLPLS,0.05 0.27 -0.05 -0.36 -0.19 0.09,-0.03,0 of 18
MFSQLVYTGSRAKNAVA,QASTREN,QQYHRLPLS,0.37 0.30 -0.03 -0.04 -0.32 0.25,0.09,0 of 18

The authors' rule: three or more of the six replicates give a measured affinity, fewer mean a poor binder. The range of this assay differs from that of the first round, and the authors advise against merging the two. The parent sequence was in this pool as ten entries: three were never detected, three once, and four in most replicates, with averages from 0.34 to 2.37.